Target: SphK1 (Homo sapiens, UniProt Q9NYA1)
Experiment: SphK1 384-well flashplate kinase assay
Format: biochemical
Details: enzyme assay
Description: The kinase assay is carried out as a 384-well flashplate assay.
5 nM modified SphK1, 800 nM omega-biotinyl-D-erythro-sphingosine and 1 μM ATP (with 0.3 μCi of ^33P-ATP/well) are incubated in a total volume of 50 μl (25 mM HEPES, 5 mM MgCl2, 1 mM dithiothreitol, 0.01% of Brij35, 0.1% of BSA (fatty acid-free), pH 7.4) without or with test substance (5-10 concentrations) at 30° C. for 120 min. The reaction is terminated using 25 μl of 200 mM EDTA solution, filtered off with suction at room temperature after 30 min, and the cavities are washed 3 times with 100 μl of 0.9% NaCl solution. The non-specific proportion of the kinase reaction (blank) is determined using 0.5 mM NaCl. Radioactivity is measured in topcount. IC50 values are calculated using RS1.

Chains of the proteins cited; added tags and fusions are not shown.
UniProt Q9NYA1, whole entry: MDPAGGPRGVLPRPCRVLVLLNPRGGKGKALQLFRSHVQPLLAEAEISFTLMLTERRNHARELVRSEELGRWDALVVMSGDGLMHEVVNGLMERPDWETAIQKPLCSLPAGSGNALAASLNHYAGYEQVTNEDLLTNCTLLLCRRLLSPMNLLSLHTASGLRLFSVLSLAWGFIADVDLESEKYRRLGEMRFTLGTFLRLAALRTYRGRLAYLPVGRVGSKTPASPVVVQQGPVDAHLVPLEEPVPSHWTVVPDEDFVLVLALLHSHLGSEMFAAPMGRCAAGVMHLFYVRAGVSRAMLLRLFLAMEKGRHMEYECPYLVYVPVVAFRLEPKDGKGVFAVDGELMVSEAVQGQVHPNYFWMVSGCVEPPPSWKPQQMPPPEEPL

- IC50: > 10 µM
Structure (SMILES): CC(C)(C)OC(=O)NCCN1CCC(c2nc(-c3ccc4c(c3)C(C)(C)CCC4(C)C)cs2)CC1 [Compound A37, tert-butyl (2-{4-[4-(5,5,8,8-tetramethyl-5,6,7,8-tetrahydronaphthalen-2-yl)thiazol-2-yl]piperidin-1-yl}ethyl)carbamate]
